Results: ChEMBL document CHEMBL3272097, “Intramolecular hydrogen bonding and conformational studies of bridged thebaine and oripavine opiate narcotic agonists and antagonists” (1979)

Target: Opioid receptors; mu/kappa/delta (Homo sapiens) (UniProt P41145+P41143+P35372)
Assay: Displacement of [3H]naloxone from opioid receptor (unknown origin) relative to nalorphine

Row | SMILES | fold change (FC)
1 | CO[C@]12C=C[C@@]3(CC1C(C)(C)O)[C@H]1Cc4ccc(O)c5c4[C@@]3(CCN1CC1CC1)[C@H]2O5 (some centres not stated) | 50
2 | C=CCN1CC[C@]23c4c5ccc(O)c4O[C@H]2[C@@]2(OC)C=C[C@@]3(CC2C(C)(C)O)[C@H]1C5 (some centres not stated) | 2
